Earlier results as cited in patent US6599913B1, “Treating allergic and inflammatory conditions” (Schering Corporation, priority 2001, dated 2003).

Biological target: T1, rat OATP1 (Rattus norvegicus, UniProt P46720)
T1 sequence (P46720 1-670): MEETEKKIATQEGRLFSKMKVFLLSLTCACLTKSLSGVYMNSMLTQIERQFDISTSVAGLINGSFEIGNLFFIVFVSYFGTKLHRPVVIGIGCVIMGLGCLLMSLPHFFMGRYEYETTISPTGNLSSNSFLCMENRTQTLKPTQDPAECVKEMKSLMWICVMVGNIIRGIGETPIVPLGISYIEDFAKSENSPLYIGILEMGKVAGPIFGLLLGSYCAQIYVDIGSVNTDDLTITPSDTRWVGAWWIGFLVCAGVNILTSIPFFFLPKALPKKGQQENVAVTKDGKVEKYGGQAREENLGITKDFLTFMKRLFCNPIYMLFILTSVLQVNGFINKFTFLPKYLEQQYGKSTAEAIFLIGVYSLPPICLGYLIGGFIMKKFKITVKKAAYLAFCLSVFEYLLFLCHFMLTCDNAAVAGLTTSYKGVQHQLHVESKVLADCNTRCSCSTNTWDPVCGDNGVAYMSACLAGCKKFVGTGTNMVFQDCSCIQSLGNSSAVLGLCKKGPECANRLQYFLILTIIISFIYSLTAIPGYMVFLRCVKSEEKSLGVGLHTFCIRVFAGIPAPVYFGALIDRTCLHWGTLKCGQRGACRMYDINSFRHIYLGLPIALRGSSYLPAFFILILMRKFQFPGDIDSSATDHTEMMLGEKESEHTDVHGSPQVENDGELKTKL
Conditions: at 10 μM; cited from earlier work

Substance: corticosterone sulfate
- Inhibition of rat OATP1: effectively inhibits
